The target in assay [1] is OBn(GGS)2t-FhuA (not stated | E. coli). Kind of assay: single-channel electrical recording.
Assay [2] has the same target. Kind of assay: single-channel electrical recording. This is another data set of the same source.

pKd: −log10 of the molar value. Like-named read-outs stand apart in the source and are kept apart here.

As a reminder, the koff is a measure of how fast the partners let go of each other. Read a low koff as a long-lived complex. By kon is commonly meant a measure of how fast the partners come together. What is called pKd is the negative decadic logarithm of the Kd, by convention in mol/L. Read a high pKd as a low Kd. In assay [1], “barstar (Bs) (from UniProt P11540 1-90) (natural protein)” had a 1/τoff at 12.63 nM Bs of 0.934 s⁻¹, a 1/τon at 12.63 nM Bs of 0.227 s⁻¹, an off-rate constant (koff) of 0.95 s⁻¹ and a kon of 1.59e+07 M⁻¹ s⁻¹. In assay [1], this substance returned a release duration τon at 12.63 nM Bs of 4190 ms and a release duration τon at 50.5 nM Bs of 1150 ms. In assay [2], the pKd was 7.28, the koff came to 0.86 s⁻¹ and the association rate constant (kon) is 1.67e+07 M⁻¹ s⁻¹.

The values above are taken from paper PMC6764869.
